## Antibody variant affinities, Ab-14 heavy chain, assay B

Values reported by Li et al. 2023, doi:10.1038/s41467-023-39022-2 (FLAb copy).

Antigen: PDVDLGDISGINAS, a 14-residue peptide of the SARS-CoV-2 spike HR2 region.

The variants keep the light chain, the linker and the frameworks of Ab-14 (scFv order VH, three GGGGS repeats, VL).
VH: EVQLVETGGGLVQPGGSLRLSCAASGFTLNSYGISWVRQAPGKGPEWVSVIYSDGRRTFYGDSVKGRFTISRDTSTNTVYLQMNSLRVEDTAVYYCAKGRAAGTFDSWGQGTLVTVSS
VL: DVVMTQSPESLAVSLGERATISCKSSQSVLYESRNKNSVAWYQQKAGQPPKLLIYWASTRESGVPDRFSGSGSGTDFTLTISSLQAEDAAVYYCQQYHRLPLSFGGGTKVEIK

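This is the validation round: designs drawn from the data on random variants, tested in the same kind of assay. Several design methods are mixed in this list. Affinity was read by AlphaSeq, a pooled yeast mating assay with surface-displayed partners. The frequency of each diploid, read from paired DNA barcodes, reflects how well the two displayed proteins bind. Each replicate has its own calibration line, from reference interactions of the BCL2 family. Each pool was mated in six replicate cultures.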

Variants are written as CDR1, CDR2 and CDR3 of the heavy chain (limits as in the source). Parent: GFTLNSYGIS, VIYSDGRRTFYGDSVK, GRAAGTFDS.
Kd is apparent (estimated from mating counts) and averaged on the log scale over replicates with a signal. Smaller is tighter.
An entry "not detected" has no value in the source: the pair was not observed among the diploids in any replicate. This suggests poor binding but is not conclusive.
The list is sorted by this average, lowest first, undetected variants last.
Values of this round are not directly comparable with the first-round values of the same sequences.

CDR-H1,CDR-H2,CDR-H3,Kd,detected
GFDLDEYGIS,VIYADGVRTAYADSVK,GNTAGTFDT,7.2 pM,6 of 6
GFTLESYGIS,VIYSDGRRTFYADRVK,GRAAGTFDT,27 pM,1 of 6
GFSLDEYGIS,VIYADGRRTFYADSVK,GNIAGTFDS,200 pM,6 of 6
GFDLDEYGIS,VIYADGRRTAYADSVK,GNQAGTFDL,230 pM,6 of 6
GFNLNEYGIS,VIYADGRRTFYSDSVK,GEIAGTFDS,270 pM,6 of 6
GFTLDEYGIS,VIYADGRRTFYADSVK,GTVAGTFDQ,300 pM,6 of 6
GFDLNEYGIS,VIYADGRRTFYADSVK,GKNAGTFGV,330 pM,6 of 6
GFDLNEYGIS,VIYADGQRTYYADSVK,GTNAGTFDV,340 pM,6 of 6
GFTLNSYGIS,VIYADGRRTFYGDSVK,GEAAGTFDS,340 pM,12 of 12
GFDLNEYGIS,VIYADGRRTAYADSVK,GQVAGTFDF,490 pM,6 of 6
GFDLNEYGIS,VIYADGRRTFYQDSVK,GENAGTFDQ,500 pM,6 of 6
GFDLNEYGIS,VIYADGRRTFYADSVK,GNHAGTFDV,510 pM,6 of 6
GFELNEYGIS,VIYSDGRRTFYADSVK,GKAAGTFDS,510 pM,6 of 6
GFALNEYGIS,VIYSDGRRTFYSDSVK,GRTAGTFDS,540 pM,6 of 6
GFTLDSYGIS,VIYADGRRTFYGDSVK,GRAAGTFES,680 pM,3 of 6
GFDLNEYGIS,VIYADGRRTQYIDSVK,GNQAGTFDE,870 pM,6 of 6
GFDLNEYGIS,VIYADGRRTFYSDSVK,GEFAGTFDQ,880 pM,6 of 6
GFQLNSYGIS,VIYSDGRRTFYSDSVK,GHEAGTFDS,950 pM,6 of 6
GFDLDEYGIS,VIYADGRRTAYSDSVK,GNNAGTFDI,1.3 nM,6 of 6
GFDINEYGIS,VIYADGRRTSYADSVK,GNQGGTFDL,1.3 nM,6 of 6
GFELNSYGIS,VIYSDGRRTFYSDSVK,GWTAGTFDS,1.4 nM,6 of 6
GFSLNSYGIS,VIYSDGRRTFYTDSVK,GNAAGTFDS,1.6 nM,6 of 6
GFSLNEYGIS,VIYSDGRRTFYGDAVK,GRTAGTFDS,1.8 nM,6 of 6
GFELNSYGIS,VIYSDGRRTFYIDSVK,GTAAGTFDS,1.9 nM,6 of 6
GFELNEYGIS,VIYSDGRRTFYGDSVK,GQTAGTFDL,2.9 nM,6 of 6
GFYLNDYGIS,VIYSDGRRTFYGDSVK,GRTAGTFDS,4.4 nM,6 of 6
GFSLNSYGIS,VIYSDGRRTFYGDSVK,GQTAGTFDD,5.0 nM,6 of 6
GFDLNEYGIS,VIYADGRRTFYADSVK,GTAGGTFDV,5.6 nM,3 of 6
GFDLNEYGIS,VIYADGQRTAAANTVK,GGAVGGQLD,16 nM,6 of 6
GFDLNSYGIS,VIYSDGRRTFYADWVK,GNAAGTFDN,17 nM,4 of 6
GFNLNSYGIS,VIYSDGRRTFYADRVK,GNAAGTFDS,17 nM,6 of 6
GFDLNEYGIS,VIYADGMRTAYTDSVK,GENAGTFDL,24 nM,2 of 6
MFDLNSYGIS,VIYSDGRRTFYGDSVK,GRTAGTFDD,27 nM,4 of 6
GFTLNSYGIS,VIYSDGRRTFYGDNVK,GRAAGTFDC,39 nM,2 of 6
GFTLNSYGIS,VIYSDGRRTFYGDSVK,GRAAGTTDT,83 nM,4 of 6
GFTLNMYGIS,VIYSDGRRTFYGDSVK,GEAAGTFSS,88 nM,4 of 6
GFDLDEYGIS,VIYADGKRTYYADSVK,GNVAGTFDT,120 nM,2 of 6
KFGLNSYGIS,VIYSDGRRTFYGNSVK,GRAAGTFDS,14 µM,1 of 6
GFGLNSYGIS,VAYSDGRRTFYSDSVK,GRAGGTFLS,not detected,0 of 6
GFQLNSYGIS,VIYSDGRRTFYGDSVK,GRSAGTFDS,not detected,0 of 6
GNSLNEYGIS,VIYSDGRRTFYGDSVK,GRTAGTFDS,not detected,0 of 6
GFDLSEYGIS,VIYADGRRTAYQDSVK,GLNEGMLVV,not detected,0 of 6
GMSLDEYGIS,VIYADGMRSAYSDKVK,GEVDEYAYV,not detected,0 of 6
GFDIEEYGIS,VIYADGLRTVYADDVK,GIAKGSSLT,not detected,0 of 6
GFTLLSYGIS,VIYSDGRRTFYGDSVK,RRAAGTFDQ,not detected,0 of 6
GFDLNEYGIS,VIYADGRRTAYSDSVK,GNTAGTFDI,not detected,0 of 6
GFTLNEYGIS,VIYRDGRRTFYGDQVK,GRAAGTFDS,not detected,0 of 6
GEDLDEYGIS,VIYADGVRTVAQDKVK,GELSGNFAQ,not detected,0 of 6
GFDLNSYGIS,VIYSDGRRTFYGDSVK,GKAAGTFDL,not detected,0 of 6
GFTIDEYGIS,VIYADGQRVAYNEKVK,GMLDGTFDQ,not detected,0 of 6

The authors averaged sequences with at least three values out of six and counted those with two or fewer as poor binders.
A sequence that the file lists under several names has all its replicates pooled.
Three control strains display no target. For all heavy chain designs, 1% of the pairings with them gave a signal, with a median of 120 nM and one signal in twenty below 7.0 nM, so weak values seen in few replicates may be background.